Like-named read-outs stand apart in the source and are kept apart here.
Molecular target: T1, KDM4A-F185A (Homo sapiens, UniProt O75164, F185A)
T1 sequence (O75164 142-308 F185A limits assumed): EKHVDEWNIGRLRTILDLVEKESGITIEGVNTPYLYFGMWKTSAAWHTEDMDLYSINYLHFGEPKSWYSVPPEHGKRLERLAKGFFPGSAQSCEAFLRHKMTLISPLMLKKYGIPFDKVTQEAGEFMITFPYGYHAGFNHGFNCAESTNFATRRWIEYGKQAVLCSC
Details: H3K9me3 demethylation, saturating peptide, 2OG as cofactor

## O=C(O)CCC(=O)C(=O)O [compound 1, 2-oxoglutarate]
Listed as 2OG
  kcat: 0.19 ± 0.01 min^–1
Listed as 2OG 1
  kcat: 0.186±0.008 min^–1

Reference: article PMC11783601, “Analogue-Sensitive Inhibition of Histone Demethylases Uncovers Member-Specific Function in Ribosomal Protein Synthesis” (Journal of the American Chemical Society, 2025)
